Earlier results on one compound are cited in patent US20180008551A1, “METALLIC AND PROTEIN/POLYMER NANOPARTICLE CONSTRUCTS, MULTI-DRUG VEHICLE AND FABRICATION METHODS” (The Curators of the University of Missouri, priority 2016, published 2018).

≈ marks a conversion by molar mass, not a printed value.

For `CC1(C)C(/C=C/C=C/C=C/C=C2\N(CCCCS(=O)(=O)O)c3ccc4ccccc4c3C2(C)C)=[N+](CCCCS(=O)(=O)[O-])c2ccc3ccccc3c21` [Indocyanine Green], the water solubility limit was 2 mg/mL (≈ 2660 µM).
